The numbers were not newly measured in patent US20130252831A1, “METHOD OF DIAGNOSING EARLY STAGE NON-SMALL CELL LUNG CANCER” (H. Lee Moffitt Cancer Center and Research Institute, Inc., priority 2010, published 2013), which cites them from elsewhere.

This series deals with EGFR-mutant NSCLC. Particulars: randomized phase III trial (Zhou et al.); cited from earlier work.

On to `COc1cc2ncnc(Nc3ccc(F)c(Cl)c3)c2cc1OCCCN1CCOCC1` [gefitinib], for which the “efficacy compared with platinum-based chemotherapy” value is listed as “superior to platinum-based chemotherapy”.
